Measured values from patent EP4837902A1, “LIPID COMPOUND AND LIPID NANOPARTICLE FOR DELIVERY” (dated 2026).

Tests used:
[1] = Encapsulation efficiency of mRNA-loaded LNPs (RiboGreen assay kit, 10% OTG as demulsifier); conditions: LNP of compound, cholesterol, DSPC, DMG-PEG2000 in molar ratio 50:38.5:10:1.5; encapsulated mRNA
Protocol: (§1) An mRNA stock solution was dispersed in a 20 mM acetic acid solution (pH 5.3) to a final concentration of 200 µg/mL (aqueous phase). The example compound, cholesterol, DSPC, and DMG-PEG2000 were mixed in a molar ratio of 50:38.5:10:1.5 to form a mixed lipid (oil phase). Flow rates of the aqueous phase and the oil phase were controlled to mix mRNA with the lipid mixture via T-junction mixing, to obtain LNP encapsulated mRNA. The encapsulated LNPs were diluted with a buffer solution and then concentrated by ultrafiltration. The diluent was replaced. Finally, the LNPs were concentrated to an mRNA concentration of 100 µg/mL, and the pH of the LNPs was adjusted to about 7.0-8.5. Finally, the total mRNA content and free mRNA content in the LNPs were measured by using a RiboGreen assay kit and 10% OTG as a demulsifier, and the encapsulation efficiency of the LNPs was calculated. The final LNP product was diluted with a diluent, added (1 ml) to a particle size cell, and placed on a Malvern Zetasizer instrument to measure the particle size of the LNPs.

[2] = Particle size and PDI of LNPs (Malvern Zetasizer); conditions: LNP of compound, cholesterol, DSPC, DMG-PEG2000 in molar ratio 50:38.5:10:1.5; encapsulated mRNA
Protocol: as §1

[3] = tested on: BALB/c mice; experiment: Delivery efficiency: luciferase expression after intramuscular injection of LNP-encapsulated luciferase mRNA (IVIS bioluminescence); conditions: LNP with luciferase mRNA, intramuscular injection 0.25 mg/kg, 24 h, compared with Compound 2 and Compound NTX-C16 (FIG. 1)
Protocol: • 1. Luciferase mRNA was encapsulated with LNP formulations of Compounds 1 to 3, NTX-C16, and MC3. A method for preparing the LNP formulations and a method for encapsulating the mRNA are as described in Test Example 1. • 2. The encapsulated LNP formulations were intramuscularly injected into BALB/c mice (injection dose: 0.25 mg/kg muscle), with 5 mice in each group. • 3. The luciferase fluorescence expression intensity of each mouse was measured at 24 h. • 4. Measurement of fluorescence expression intensity: D-Luciferin sodium salt (dose: 150 mg/kg) was intraperitoneally injected into each mouse 10 min before measurement. Then the mouse was anesthetized with isoflurane and placed in an IVIS instrument for measurement using bioluminescence. • 5. The delivery efficiency of each compound was evaluated based on the fluorescence intensity results

Compound	Encapsulation efficiency [1]	PDI [2]	Particle size [2]	luciferase fluorescence expression intensity [3]
CCCCCCCCC(CCCCCC)C(=O)OCCCCCCC1(CCCCCCOC(=O)C(CCCCCC)CCCCCCCC)OCC(CCN(C)C)O1 (centres unmarked)	95.88%	0.09896	69.74 nm	
CCCCCCCCC(CCCCCC)C(=O)OCCCCCC1(CCCCCOC(=O)C(CCCCCC)CCCCCCCC)OCC(CCN(C)C)O1 (centres unmarked)	95.50%	0.1372	64.56 nm	

Continued, in another order:

Encapsulation efficiency [1]	PDI [2]	Particle size [2]	Compound	luciferase fluorescence expression intensity [3]
91.45%	0.07126	111.7 nm	CCCCCCCCCCC(=O)OCCCCCCCCC1(CCCCCCOC(=O)C(CCCCCC)CCCCCCCC)OCC(CCCCN(C)C)O1 (centres unmarked)	significantly higher
97.00%	0.1833	136.8 nm	CCCCCCCCCCC(=O)OCCCCCCCCC1(CCCCCCCCOC(=O)C(CCCCCC)CCCCCCCC)OCC(CCCCN(C)C)O1 (centres unmarked)	
97.16%	0.04995	116.9 nm	CCCCCCCCCCC(=O)OCCCCCCC1(CCCCCCOC(=O)C(CCCCCC)CCCCCCCC)OCC(CCCCN(C)C)O1 (centres unmarked)	significantly higher
